Earlier results in patent publication US5928915A, “CHO cell sialidase by recombinant DNA technology” (Genentech, Inc., priority 1997, dated 1999).

Legend:
[1] = test system: lysosomal sialidase (fibroblasts); conditions: cited from earlier work
[2] = test system: plasma membrane sialidase (adenovirus transformed kidney cells); conditions: cited from earlier work

In the case of `CC(=O)N[C@H]1[C@H]([C@H](O)[C@H](O)CSc2ccc(N=[N+]=[N-])cc2[N+](=O)[O-])OC(C(=O)O)=C[C@@H]1O` [9-PANP-Neu5Ac2en, 9-S-(4'-azido-2'-nitro-phenyl)-5-acetamido-2,6 anhydro-9-thio-2,5,9-trideoxy-D-glycero-D-galacto-non-2-enonic acid], the inhibition in words [1] is given as “strongly inhibited” and the inhibition in words [2] is given as “strongly inhibited”.
